Assay results published in US12679848B2, “Plasma kallikrein inhibitors” (Merck Sharp & Dohme LLC, priority 2020, dated 2026).

Chains of the proteins cited; added tags and fusions are not shown. Residues count along the entry.
UniProt P03952, 391-638 limits assumed: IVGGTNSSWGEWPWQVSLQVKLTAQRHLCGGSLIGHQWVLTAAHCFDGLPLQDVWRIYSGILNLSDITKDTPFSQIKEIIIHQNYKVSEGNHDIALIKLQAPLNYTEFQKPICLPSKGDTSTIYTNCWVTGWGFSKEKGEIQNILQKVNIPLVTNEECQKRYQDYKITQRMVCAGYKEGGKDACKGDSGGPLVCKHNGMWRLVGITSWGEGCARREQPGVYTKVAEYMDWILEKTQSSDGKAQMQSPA
UniProt P03952, 20-390 partner limits assumed: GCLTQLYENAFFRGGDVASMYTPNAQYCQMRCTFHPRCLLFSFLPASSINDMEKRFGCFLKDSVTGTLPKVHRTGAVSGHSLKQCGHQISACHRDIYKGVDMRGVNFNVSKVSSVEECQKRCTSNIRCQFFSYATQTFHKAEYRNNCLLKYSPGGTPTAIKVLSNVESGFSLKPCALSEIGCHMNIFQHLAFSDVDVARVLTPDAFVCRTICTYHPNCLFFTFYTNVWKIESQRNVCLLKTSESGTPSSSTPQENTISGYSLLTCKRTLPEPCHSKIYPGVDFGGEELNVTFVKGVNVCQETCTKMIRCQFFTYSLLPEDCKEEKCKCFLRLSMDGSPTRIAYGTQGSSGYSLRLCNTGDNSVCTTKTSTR
UniProt P03951, 388-625 limits assumed: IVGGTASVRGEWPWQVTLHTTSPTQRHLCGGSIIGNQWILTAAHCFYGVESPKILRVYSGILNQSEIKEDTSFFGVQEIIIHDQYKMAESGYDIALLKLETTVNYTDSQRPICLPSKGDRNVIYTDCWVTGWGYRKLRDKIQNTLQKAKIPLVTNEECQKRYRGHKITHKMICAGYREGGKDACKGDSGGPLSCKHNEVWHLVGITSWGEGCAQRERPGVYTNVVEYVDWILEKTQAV
UniProt P03951, 19-387 partner limits assumed: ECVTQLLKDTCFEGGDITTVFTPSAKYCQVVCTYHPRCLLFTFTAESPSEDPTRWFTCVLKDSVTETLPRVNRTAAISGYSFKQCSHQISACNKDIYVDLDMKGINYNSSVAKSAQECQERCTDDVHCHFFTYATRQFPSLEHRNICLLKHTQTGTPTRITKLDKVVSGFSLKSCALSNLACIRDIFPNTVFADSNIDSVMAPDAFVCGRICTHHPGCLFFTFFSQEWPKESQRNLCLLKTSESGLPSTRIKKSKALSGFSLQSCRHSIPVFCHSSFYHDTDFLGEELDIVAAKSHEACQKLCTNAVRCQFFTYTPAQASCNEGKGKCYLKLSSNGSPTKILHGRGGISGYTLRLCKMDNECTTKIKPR

What was measured:
Human plasma kallikrein = Human plasma kallikrein (Homo sapiens, UniProt P03952); experiment: Plasma Kallikrein Assay; conditions: read-out: PKal IC50; purified Human plasma kallikrein 0.5 nM, substrate Acetyl-K-P-R-AFC, HEPES pH 7.4
human factor XIa = human factor XIa (Homo sapiens, UniProt P03951); experiment: Factor XIa Assay; conditions: read-out: FXIa IC50; human factor XIa 0.04 nM, substrate GPR-AFC, 30 min pre-incubation, 25° C., pH 7.4
Experimental: The effectiveness of a compound of the present invention as an inhibitor of Coagulation factor XIa can be determined using a relevant purified serine protease, and an appropriate synthetic substrate. The rate of hydrolysis of the chromogenic or fluorogenic substrate by the relevant serine protease was measured both in the absence and presence of compounds of the present invention. Assays were conducted at rt or at 37° C. […] A decrease in the rate of fluorescence change in the presence of inhibitor is indicative of enzyme inhibition. Such methods are known to one skilled in the art. The results of this assay are expressed as the half-maximal inhibitory concentrations (IC50), or the inhibitory constant, Ki.
Compounds were pre-incubated for 30 min at 25° C. with human (0.04 nM) factor XIa in 50 mM HEPES buffer with 150 mM sodium chloride, 5 mM calcium chloride, 0.1% PEG 8000, pH 7.4. factor XIa enzymatic activity was determined by addition of the substrate glycine-proline-arginine-7-amido-4-trifluoromethylcoumarin (GPR-AFC) and measurement of the fluorescence at 400/505 nm after a 60 min incubation at 25° C. The % inhibition for each data point was calculated from the data and analyzed using the log (inhibitor) vs. response four parameters equation to determine the half-maximal inhibitory concentrations (IC50). […]

## Nc1c(C(=O)N2CCC[C@@]3(C2)OC(=O)Nc2ccc(Cl)c(F)c23)cnn1Cc1cccnc1 [Example 55, (R)-1'-(5-Amino-1-(pyridin-3-ylmethyl)-1H-pyrazole-4-carbonyl)-6-chloro-5-fluorospiro[benzo[d][1,3]oxazine-4,3'-piperidin]-2(1H)-one]
Human plasma kallikrein
  IC50: 2.5 nM
Human factor XIa
  IC50: 358 nM
